Experimental data: patent US20190177410A1 (Regeneron, published 2019)

Columns and labels:
Test in all cases: cell-based or functional assay
[1] = target: T1, full-length human APLNR (hAPLNR) (human, UniProt P35414 1-380)
T1 sequence: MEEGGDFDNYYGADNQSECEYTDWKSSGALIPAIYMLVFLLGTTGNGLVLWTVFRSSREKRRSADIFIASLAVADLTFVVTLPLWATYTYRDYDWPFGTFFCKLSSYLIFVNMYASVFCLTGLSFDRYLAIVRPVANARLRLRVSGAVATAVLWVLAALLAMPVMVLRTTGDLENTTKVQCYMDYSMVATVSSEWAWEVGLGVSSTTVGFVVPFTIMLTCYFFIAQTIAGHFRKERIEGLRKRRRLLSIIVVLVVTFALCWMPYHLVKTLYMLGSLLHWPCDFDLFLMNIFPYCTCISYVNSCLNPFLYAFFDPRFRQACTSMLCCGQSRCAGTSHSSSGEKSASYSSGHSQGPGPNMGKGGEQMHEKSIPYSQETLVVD

[2] = target: T1, full-length human APLNR (hAPLNR); remark: listed apart in the source
[3] = target: T1, full-length human APLNR (hAPLNR); remark: listed apart in the source
[4] = target: T1, full-length human APLNR (hAPLNR); remark: listed apart in the source
[5] = target: T2, human Apelin receptor (hAPLNR) of PathHunter eXpress AGTRL1 CHO-K1 beta-Arrestin cells (human, UniProt P35414 1-380)
T2 sequence: T1 sequence

B1: H4H9093P-3-NVH3 (antibody, V domains shown)
VH: EVQLVESGGGLVKPGGSLRLSCAASGITFSNAWMSWVRQAPGKGLEWVGRFKGKADGGTVDYAAPVKGRFTISRDDSKNTLYLQMNSLKNEDTAVYYCTTGRITMVRGVLGYWGQGTLVTVSS
VL: not shown
- % Activation at 100 nM mAb (7.5 uM Forskolin), CRE-luc [1]: 100%
- Activating EC50 (M), ratio of pERK1/2 to total ERK1/2, CHO/hAPLNR cells [2]: 5.42e-10 M

B2: H4H9092P-1-NVH3 (antibody, V domains shown)
VH: B1 VH with F51I, G53S, A55V, V60I, N90T
VL: not shown
- % Activation at 100 nM mAb (10 uM Forskolin), CRE-luc [3]: 100%

B3: H4H9093P-APN10-(G4S)3 (antibody, V domains shown)
VH: B1 VH
VL: not shown
- % Activation at 100 nM mAb (7.5 uM Forskolin), CRE-luc [1]: 50%
- % Inhibition at 100 nM mAb, in the presence of 100 pM Apelin (at 7.5 uM Forskolin), CRE-luc [4]: 15%

B4: H4H9093P-APN11-(G4S)3 (antibody, V domains shown)
VH: B1 VH
VL: not shown
- % Activation at 100 nM mAb (7.5 uM Forskolin), CRE-luc [1]: 100%

B5: H4H9093P-APN11+S-(G4S)3 (antibody, V domains shown)
VH: B1 VH
VL: not shown
- % Activation at 100 nM mAb (7.5 uM Forskolin), CRE-luc [1]: 100%
- EC50 [M] (7.5 uM Forskolin), CRE-luc [1]: 9.2e-11 M

B6: H4H9093P-APNV5-11-(G4S)3 (antibody)
VH: GKPIPNPLLGLDSTQRPRLSHKGPMGGGGSGGGGSGGGGSEVQLVESGGGLVKPGGSLRLSCAASGITFSNAWMSWVRQAPGKGLEWVGRFKGKADGGTVDYAAPVKGRFTISRDDSKNTLYLQMNSLKNEDTAVYYCTTGRITMVRGVLGYWGQGTLVTVSS
VL: not shown
- % Activation at 100 nM mAb (7.5 uM Forskolin), CRE-luc [1]: 100%
- % Activation at 500 nM antibody or Apelin-antibody fusion, PathHunter beta-Arrestin assay [5]: 47%
- EC50 [M], PathHunter beta-Arrestin assay [5]: > 1e-07 M

B7: H4H9209N-4-NVH3 (antibody, V domains shown)
VH: EVQLLESGGGLVQPGGSLRLSCAASGFTFSNYAMNWVRQAPGRGLEWVSAIHYDGSNSYYADSVKGRFTISRDNSKNTLYLQMNSLRAEDTAIYYCAILSRVYWGQGTLVTVSS
VL: DIQMTQSPSSLSASVGDRVTITCRASQGINNYLAWFQQKPGKAPKSLIYATSSLQSGVPSKFSGSGSGTDFTLTISSLQPEDFATYYCQQYNSYPLTFGGGTKVEIK
- % Activation at 100 nM mAb (7.5 uM Forskolin), CRE-luc [1]: 100%

B8: H4H9209N-APN11-(G4S)3 (antibody, V domains shown)
VH: B7 VH
VL: B7 VL
- % Activation at 100 nM mAb (7.5 uM Forskolin), CRE-luc [1]: 100%
- EC50 [M] (7.5 uM Forskolin), CRE-luc [1]: 2.7e-11 M

B9: H4H9209N-APN11+S-(G4S)3 (antibody, V domains shown)
VH: B7 VH
VL: B7 VL
- % Activation at 100 nM mAb (7.5 uM Forskolin), CRE-luc [1]: 100%

B10: H4H9093P-APN9-(G4S)3 (antibody, V domains shown)
VH: B1 VH
VL: not shown
- EC50 [M], PathHunter beta-Arrestin assay [5]: 8.3e-09 M
- % Inhibition at 100 nM mAb, in the presence of 100 pM Apelin (at 7.5 uM Forskolin), CRE-luc [4]: 27%

B11: H4H9209N-APN9-(G4S)3 (antibody, V domains shown)
VH: B7 VH
VL: B7 VL
- % Inhibition at 100 nM mAb, in the presence of 100 pM Apelin (at 7.5 uM Forskolin), CRE-luc [4]: 14%

Changes are numbered by the printed parent chain. Numbers in names are those of the source.
